Columns and labels:
[1] = biological target: IgG of IgG Sepharose 6 Fast Flow affinity resin; experiment: IgG Sepharose 6 Fast Flow affinity chromatography, cycle 0, soluble protein A load
[2] = biological target: IgG of IgG Sepharose 6 Fast Flow affinity resin; experiment: IgG Sepharose 6 Fast Flow affinity chromatography, cycle 0, soluble protein A load of 7.6 mg at pH 7.4

## soluble Protein A (from UniProt P38507 37-477)
[1]
  eluate recovery, % Mass (bound and eluted): 76%
  eluate recovery, % Peak Area (bound and eluted): 100%
  flowthrough recovery, % Peak Area (unbound): 0%
[2]
  pooled eluate mass (bound and eluted): 1.2 mg

From US20260146061A1
